The target in this test is α-7 nicotinic ACh receptor ion channel expressed in HEK 293 cells (Rattus norvegicus, UniProt Q05941). The test can be described thus: Ca2+-sensitive, fluorescence-based assay for α-7 nicotinic acetylcholine receptor channel function in mammalian cells (FLIPR). The settings on record: read-out: FLIPR α7 (EC50), Table 1, agonist Ca2+ flux. On the procedure:
II) A Ca^2+-Sensitive, Fluorescence-Based Assay α-7 for Nicotinic Acetylcholine Receptor Channel Function in Mammalian Cells (“FLIPR”). Summary:
Lead compounds are evaluated for agonist activity at α-7, α3β4, α4αβ2, and α1β1δ1ε sub-types of nicotinic ACh receptor ion channels expressed in mammalian HEK 293 cells. Agonist potency and efficacy values are determined from kinetic fluorescence Ca^2+ influx measurements made using a 384 well FLIPR (Fluorescence Image Plate Reader). The utility of fluorescent indicators for measuring changes in intracellular divalent cation concentrations, particularly Ca^2+, for drug discovery endeavors is well documented (Rudiger, R., et al., Nature Reviews, 2003, 4:579-586; Gonzalez J. E., et al., Receptors and Channels, 2002, 8:283-295). In this assay, channel expressing HEK cell lines seeded in 384 well assay plates are loaded with a membrane permeant fluorescent Ca^2+ indicator dye, whose 510 nm green emission signal increases in response to elevation of intracellular Ca^2+ concentration. The basal fluorescence from the cells is monitored in real time, followed by the acute addition of test compounds. If the compound is an agonist at any of the non-selective cation channels, the latter open and allow the movement of extracellular Ca^2+ ions into the cell cytoplasm, where they bind to the Ca^2+ indicator dye, and produce an increase in fluorescence output signal, which is detected by a cooled CCD imaging camera.
Reagents: The acetomethoxy (AM) ester of the Ca^2+ indicator dye Fluo-4 was obtained from InVitrogen, (Carlsbad, Calif.). Acetylcholine and all buffer constituents were purchased from Sigma Chemical Company, St. Louis, Mo. G418 and Minimal Essential Medium were purchased from InVitrogen Life Technologies, Carlsbad, Calif. Fetal bovine serum was purchased from (InVitrogen, Carlsbad, Calif.).
HEK-293 cells were grown in Minimal Essential Medium containing 10% (v/v) fetal bovine serum at 37° C. in a 5% CO2 incubator. HEK-293 cells stably expressing the ion channels were grown in the same medium with the addition of 500 μg/ml G418.
HEK-293 cells expressing the ion channels of interest were plated in 384 well, black-walled, clear-bottomed, poly-D-lysine coated plates at a density of ˜20,000 cells/well in 20 μl of Minimal Essential Medium containing 10% (v/v) fetal bovine serum and incubated for 2 days at 29° C. in a 5% CO2 incubator. Prior to assay, cells were loaded with the Fluo-4 AM ester. Cell loading was accomplished by removing the culture medium and replacing it with 30 μl/well of the AM ester of the dye (5 μM) mixed with Hanks Balanced Salt Solution (#14175-095) containing 20 mM HEPES, 2.5 mM probenecid, 0.5 mM CaCl2, 1 mM MgCl2 and 10 μM atropine. Dye loading was allowed to proceed for 90 minutes at room temperature at which time the dye loading solution was removed and replaced with 40 μl/well of Hanks buffer. Cells loaded with dye were loaded onto a FLIPR384 (Molecular Devices, Sunnyvale, Calif.). Fluo-4 dye was excited using the 488 nm line of an argon laser. Emission was filtered using a 540+/−30 nm bandpass filter. For evaluation of the effects of test compounds using the Ca^2+ flux assay, compounds to be tested were provided in assay ready plates. For nicotinic receptor ion channel expressing cells, the assay was initiated by the addition of 20 μl/well of Hanks buffer containing test compounds. For all assays, data were collected at 1 Hz for 10 seconds (baseline), at which time the compound containing stimulus buffers are added, and further measurements collected at 0.33 Hz for 3 min.
The statistical robustness of the nicotinic receptor Ca^2+ flux assays is determined from blanks and totals wells. The totals wells define maximal channel activation for each compound test plate (Maximum efficacious dose of acetylcholine), and the blanks wells which contain matched DMSO only, define zero channel activation. […]
Background: A change in cytosolic calcium serves as a functional read-out for many receptors and channels.

Protein sequences, listed by entry. Tags and fused reporters are not part of them. Residues count along the entry.
UniProt Q05941, 23-502 limits assumed: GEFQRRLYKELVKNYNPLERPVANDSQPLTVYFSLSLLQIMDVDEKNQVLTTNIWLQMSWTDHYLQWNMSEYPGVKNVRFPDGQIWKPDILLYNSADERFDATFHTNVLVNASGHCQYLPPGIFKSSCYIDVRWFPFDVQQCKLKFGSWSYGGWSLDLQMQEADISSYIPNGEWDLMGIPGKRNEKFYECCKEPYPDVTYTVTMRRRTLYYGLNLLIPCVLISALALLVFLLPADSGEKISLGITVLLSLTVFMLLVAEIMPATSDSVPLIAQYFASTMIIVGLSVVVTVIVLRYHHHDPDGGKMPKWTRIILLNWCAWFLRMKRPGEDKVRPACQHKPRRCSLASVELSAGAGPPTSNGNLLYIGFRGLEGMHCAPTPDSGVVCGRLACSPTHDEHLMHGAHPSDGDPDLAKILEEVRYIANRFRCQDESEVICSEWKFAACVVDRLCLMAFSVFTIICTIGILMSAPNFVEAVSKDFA

SMILES strings stand for the structures.

With `Cn1ccnc1C(=O)N1CC2CN3CCC2C1C3` (stereo not drawn), the EC50 was more than 100 µM. With `O=C(c1ccc2ccccc2n1)N1CC2CN3CCC2C1C3` (stereo not drawn) the figure was more than 100 µM. Regarding `O=C(c1cnc2ccccc2c1)N1CC2CN3CCC2C1C3` (stereo not drawn), the EC50 is 18 µM. The result for `O=C(c1ccno1)N1CC2CN3CCC2C1C3` (stereo not drawn) reads more than 100 µM; that for `O=C(c1cc2c(Cl)cccc2s1)N1CC2CN3CCC2C1C3` (stereo not drawn), more than 100 µM; that for `O=C(c1cccs1)N1CC2CN3CCC2C1C3` (stereo not drawn), more than 100 µM. `O=C(c1n[nH]c2ccc(Br)cc12)N1CC2CN3CCC2C1C3` (stereo not drawn): the EC50 was more than 100 µM. The result for `O=C(c1cccc2c1OCC2)N1CC2CN3CCC2C1C3` (stereo not drawn) reads more than 100 µM. The result for `O=C(c1ccc2c(c1)OCO2)N1CC2CN3CCC2C1C3` (stereo not drawn) reads more than 100 µM; that for `O=C(c1ccc2nccnc2c1)N1CC2CN3CCC2C1C3` (stereo not drawn), 25 µM; that for `COc1ccccc1C(=O)N1CC2CN3CCC2C1C3` (stereo not drawn), more than 100 µM.

Regarding `Cn1nc(C(=O)N2CC3CN4CCC3C2C4)c2ccccc21` (stereo not drawn), the EC50 is more than 100 µM. On to `O=C(c1ccc2ncsc2c1)N1CC2CN3CCC2C1C3` (stereo not drawn), for which the EC50 is more than 100 µM. The result for `O=C(c1csc(-c2ccccc2)n1)N1CC2CN3CCC2C1C3` (stereo not drawn) reads more than 100 µM; that for `O=C(c1cnccn1)N1CC2CN3CCC2C1C3` (stereo not drawn), more than 100 µM; that for `COc1ccc2c(C(=O)N3CC4CN5CCC4C3C5)n[nH]c2c1` (stereo not drawn), 1.1 µM. With `Cc1cc(C(=O)N2CC3CN4CCC3C2C4)no1` (stereo not drawn) the figure was more than 100 µM; with `O=C(c1ccccn1)N1CC2CN3CCC2C1C3` (stereo not drawn), more than 100 µM. The result for `O=C(c1n[nH]c2ccc(Cl)cc12)N1CC2CN3CCC2C1C3` (stereo not drawn) reads 0.4 µM; that for `O=C(c1cnc2ccccc2n1)N1CC2CN3CCC2C1C3` (stereo not drawn), more than 100 µM. In the case of `O=C(c1cccc2ccccc12)N1CC2CN3CCC2C1C3` (stereo not drawn), the EC50 was more than 100 µM.

For `O=C(c1ccco1)N1CC2CN3CCC2C1C3` (stereo not drawn), the EC50 was more than 100 µM. For the compound `Cn1cc(C(=O)N2CC3CN4CCC3C2C4)c2ccccc21` (stereo not drawn), the EC50 is more than 100 µM. Turning to `O=C(c1nc2ccccc2s1)N1CC2CN3CCC2C1C3` (stereo not drawn), the EC50 was more than 100 µM.

On to `Cc1ccc(C(=O)N2CC3CN4CCC3C2C4)s1` (stereo not drawn), for which the EC50 turned out to be 6.6 µM. The result for `Cc1csc(C(=O)N2CC3CN4CCC3C2C4)c1` (stereo not drawn) reads more than 100 µM; that for `O=C(c1ccnc2ccccc12)N1CC2CN3CCC2C1C3` (stereo not drawn), more than 100 µM; that for `O=C(c1ccsc1)N1CC2CN3CCC2C1C3` (stereo not drawn), more than 100 µM. With `O=C(c1ccc(-c2ccccc2)o1)N1CC2CN3CCC2C1C3` (stereo not drawn) the figure was more than 100 µM; with `O=C(c1cc2ccccc2s1)N1CC2CN3CCC2C1C3` (stereo not drawn), 0.59 µM. With `O=C(c1cscn1)N1CC2CN3CCC2C1C3` (stereo not drawn) the figure was more than 100 µM; with `O=C(c1ccc2cnccc2n1)N1CC2CN3CCC2C1C3` (stereo not drawn), more than 100 µM. With `Cc1nn(-c2ccccc2)nc1C(=O)N1CC2CN3CCC2C1C3` (stereo not drawn), the EC50 was more than 100 µM.

`O=C(c1csnn1)N1CC2CN3CCC2C1C3` (stereo not drawn): the concentration giving a half-maximal response (EC50) is more than 100 µM. With `O=C(c1csc(-c2cccnc2)n1)N1CC2CN3CCC2C1C3` (stereo not drawn) the figure was more than 100 µM; with `O=C(c1cncnc1)N1CC2CN3CCC2C1C3` (stereo not drawn), more than 100 µM; with `O=C(c1cc2ccccc2o1)N1CC2CN3CCC2C1C3` (stereo not drawn), 4.5 µM. With `O=C(c1cc2ccccc2[nH]1)N1CC2CN3CCC2C1C3` (stereo not drawn) the figure was more than 100 µM. With `O=C(c1ccnnc1)N1CC2CN3CCC2C1C3` (stereo not drawn) the figure was more than 100 µM; with `O=C(c1ccc(Cl)cc1)N1CC2CN3CCC2C1C3` (stereo not drawn), more than 100 µM; with `O=C(c1ccncc1)N1CC2CN3CCC2C1C3` (stereo not drawn), more than 100 µM. As for `COc1cccc2[nH]nc(C(=O)N3CC4CN5CCC4C3C5)c12` (stereo not drawn), the EC50 came out at 22 µM. With `Cc1cnc(C(=O)N2CC3CN4CCC3C2C4)cn1` (stereo not drawn) the figure was 3.9 µM; with `COc1ncccc1C(=O)N1CC2CN3CCC2C1C3` (stereo not drawn), more than 100 µM; with `Cc1cccc(C(=O)N2CC3CN4CCC3C2C4)n1` (stereo not drawn), more than 100 µM.

Usually EC50 stands for the concentration needed to bring the measured effect to its halfway point.
